# Antibody variant affinities, Ab-14 light chain, assay 1

Data: MIT Lincoln Laboratory AlphaSeq set, Engelhart et al. 2022, doi:10.1038/s41597-022-01779-4, as distributed in FLAb.

Target: peptide PDVDLGDISGINAS, taken from heptad repeat 2 (HR2) of SARS-CoV-2 spike.

Ab-14 is the parent antibody, in scFv form: VH, then three GGGGS repeats, then VL. The heavy chain is unchanged in all variants.
VH: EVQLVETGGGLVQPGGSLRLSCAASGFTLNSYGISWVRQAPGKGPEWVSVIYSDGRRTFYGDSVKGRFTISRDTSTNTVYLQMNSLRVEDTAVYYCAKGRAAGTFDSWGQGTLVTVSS
VL: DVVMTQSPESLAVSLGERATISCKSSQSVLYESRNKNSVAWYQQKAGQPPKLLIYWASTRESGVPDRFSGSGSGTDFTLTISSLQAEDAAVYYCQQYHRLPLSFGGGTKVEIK

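The starting antibody came from a phage panning campaign against this peptide. Variants in AAYL50 differ from the parent at up to three CDR positions; double and triple changes were sampled at random. Affinity was read by AlphaSeq, a pooled yeast mating assay with surface-displayed partners. Binding brings cells together so that they mate, and sequencing counts the barcode pairs among the diploids. Scores were corrected for input abundance and mapped to Kd with protein pairs of known affinity run in the same pool. Each pool was mated in three replicate cultures.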

Changes read parent residue, position, new residue, counted from the first residue of the VL shown. All variants listed here change E32 of the VL, counted from its first residue. Values are apparent Kd, the geometric mean of the replicates that gave a signal; lower means stronger binding. Where no diploid with the target was found in any replicate, the entry reads "no signal": below detection, most likely a poor binder, though not proof of it.

The variant Y31H/E32L gave 45 nM (3 of 3 replicates). The variant E32Q/S58W showed 350 nM (3 of 3 replicates). With L30N/E32S/V39P the result was no signal (0 of 3 replicates). The variant E32G/A40R/Q96T showed 150 µM (1 of 3 replicates). For E32M/S58I/Q95T, the assay gave 11 µM (3 of 3 replicates). With E32L/S38W/A57H the result was no signal (0 of 3 replicates). For E32D/S33N, the assay gave 3.1 nM (3 of 3 replicates).

For E32L/E61M, the assay gave 120 nM (3 of 3 replicates). The variant E32F/K36Y/H98R showed 200 nM (3 of 3 replicates). The variant E32P/L100M showed 17 nM (3 of 3 replicates). The variant E32P/A40E/A57Y showed no signal (0 of 3 replicates). With E32H/W56L the result was no signal (0 of 3 replicates). The variant S26D/E32N/K36W showed 7.3 nM (3 of 3 replicates). The variant E32D/R60Q/L102V showed 2.7 µM (2 of 3 replicates).

With E32A the result was 8.8 nM (3 of 3 replicates). With E32V/S38N/Q96P the result was 210 nM (3 of 3 replicates). With E32Q/S62R/P101T the result was 2.0 µM (3 of 3 replicates). With E32N/S58P/R99D the result was 730 µM (1 of 3 replicates). With E32P/N37Q/L100C the result was 280 nM (3 of 3 replicates). The variant L30V/E32N gave 29 nM (3 of 3 replicates). With Y31F/E32W/S33E the result was 13 nM (3 of 3 replicates).

With E32P/S58E/P101M the result was 6.1 µM (1 of 3 replicates). With E32G/L100K the result was 5.0 nM (3 of 3 replicates). The variant E32G gave 7.7 nM (3 of 3 replicates). The variant E32C/S58L/Q95C gave 5.1 µM (2 of 3 replicates). For E32G/R60Q/H98K, the assay gave 66 µM (2 of 3 replicates). With E32K/V39T/S103R the result was 15 µM (1 of 3 replicates). The variant E32Y/K36P/Q95P gave no signal (0 of 3 replicates).

With S25A/E32K/S103K the result was 640 nM (3 of 3 replicates). For E32M/E61I/S62T, the assay gave 420 nM (3 of 3 replicates). The variant E32D/S38H/T59M showed 4.1 nM (3 of 3 replicates). With Y31F/E32F the result was 58 nM (3 of 3 replicates). The variant E32N/N37T/A57Y showed 810 nM (1 of 3 replicates). With E32I/K36Q/A57M the result was no signal (0 of 3 replicates). With Y31T/E32D/S62G the result was 10 nM (3 of 3 replicates).

With S25Y/E32H/S58T the result was 11 nM (3 of 3 replicates). For L30A/E32A/R60L, the assay gave no signal (0 of 3 replicates). The variant S25L/E32H gave 3.6 nM (3 of 3 replicates). For E32W/N37W/R60Q, the assay gave no signal (0 of 3 replicates). With E32P/K36S/H98D the result was 13 nM (3 of 3 replicates). For E32Y/Q95M/L102Q, the assay gave no signal (0 of 3 replicates). With S28C/V29T/E32C the result was 3.2 µM (3 of 3 replicates).

Extract of 3 entries:

The variant E32W/N37W/R60Q gave no signal (0 of 3 replicates).
The variant E32V/S38N/Q96P gave 210 nM (3 of 3 replicates).
The variant E32G gave 7.7 nM (3 of 3 replicates).

Nonspecific signal, from three strains lacking the peptide, appeared in 18% of pairings of library AAYL50, centred on 15 µM (5% of these signals below 970 nM); values are not corrected for it.